This is an account of results in US8895585B2, “Nicotinamide derivative or salt thereof” (FUJIFILM Corporation, priority 2010, dated 2014).

For orientation: IC50 means the concentration needed to halve the response being measured.

The target in the first test is glutathione S-transferase (GST)-fused full-length human Syk protein (Homo sapiens, UniProt P43405). The test can be described thus: Syk enzyme assay. The following applies: read-out: IC50 of Syk-inhibitory activity, Test Example 1. Here is the method:
A glutathione S-transferase (GST)-fused full-length human Syk protein (Carna Biosciences), which had been generated using a Baculovirus expression system, was used in the Syk enzyme assay.
15 μl of a reaction solution (1.2 ng Syk, 20 mM HEPES, 10 mM MgCl2, 50 mM NaCl, 2 mM DTT, 0.05% BSA, pH 7.0) containing a Syk protein and a predetermined concentration of a test compound was shaken for 2 minutes, and it was then left at rest at room temperature for 13 minutes. Thereafter, 5 μl of Biotin-EDPDYEWPSA-NH2 (final concentration: 0.4 μM) serving as a substrate peptide and 5 μl of ATP (final concentration: 27 μM) were added to the reaction solution, and the obtained mixture was then shaken for 2 minutes. The reaction solution was further left at rest at room temperature for 40 minutes, so as to carry out an enzyme reaction.
Thereafter, 50 μl of a reaction termination solution [5 μg/ml Streptavidin, 0.18 μg/ml PT66-K, 30 mM HEPES (pH 7.0), 150 mM KF, 75 mM EDTA, 0.15% BSA, 0.075% Tween20], which contained Streptavidin-Xlent (Cisbio) and Mab PT66-K (Cisbio), was added to the reaction solution to terminate the enzyme reaction. At the same time, the reaction solution was left at rest at room temperature for 1 hour, so as to carry out an antigen-antibody reaction. Thereafter, using EnVision (PerkinElmer), the time-resolved fluorescence was measured at 615 nm and 665 nm, so that the phosphorylation of the substrate peptide was measured.
In addition, the following are standards for evaluating IC50 of Syk-inhibitory activity used in Table 21. • A: Up to 10 nM • B: 10 to 50 nM • C: 50 to 100 nM • D: 100 to 1000 nM The set of numbers (XYZ-xyz) given in each Example number column indicates the corresponding Example number (Example XYZ-xyz) in Table 21.
With `CC(=O)NCCC[C@@H](Nc1nc(Nc2cnc(C)c(C)c2)c(C(N)=O)cc1F)[C@H](C)N`, the IC50 lay in the range of 50 to 100 nM. Consider `CC(=O)Nc1cncc(Nc2nc(N[C@@H]3CCCC[C@@H]3N)c(F)cc2C(N)=O)c1`, for which the half-maximal inhibitory concentration (IC50) is 10 to 50 nM. Same read-out and setting: in the case of `CC(=O)c1cccc(Nc2nc(NCCN)c(F)cc2C(N)=O)c1` it was 10 to 50 nM; in that of `CC(=O)c1ccccc1Nc1nc(N[C@@H]2CCCC[C@@H]2N)c(F)cc1C(N)=O`, 100 to 1000 nM; in that of `CN1CCN(C(=O)c2cccc(Nc3nc(NCCN)c(F)cc3C(N)=O)c2)CC1`, 100 to 1000 nM.

For `CN1CCN(c2cc(Nc3nc(N[C@@H]4CCCC[C@@H]4N)c(F)cc3C(N)=O)ccn2)CC1`, the IC50 is less than 10 nM. The same measure, in the same setting: the result for `CNC(=O)c1cccc(Nc2nc(NCCN)c(F)cc2C(N)=O)c1` reads 100 to 1000 nM; that for `COc1cc(Nc2nc(NCCCCN)c(F)cc2C(N)=O)cc(OC)c1`, 100 to 1000 nM. Same read-out and setting: the result for `COc1cc(Nc2nc(N[C@H](C(N)=O)C(C)(C)C)c(F)cc2C(N)=O)cc(OC)c1` reads 100 to 1000 nM. As to `COc1cc(Nc2nc(N[C@H]3CCCC[C@H]3N)c(F)cc2C(N)=O)cc(OC)c1`, the IC50 was in the range of 100 to 1000 nM. `CS(=O)(=O)c1cccc(Nc2nc(NCCN)c(F)cc2C(N)=O)c1`: the IC50 fell in the range of 100 to 1000 nM.

Consider `Cc1ccc(-c2cccc(Nc3nc(NCCN)c(F)cc3C(N)=O)c2)cc1`, for which the IC50 was in the range of 10 to 50 nM. Same read-out and setting: the result for `Cc1ccc(Nc2nc(NCCN)c(F)cc2C(N)=O)cc1` reads 100 to 1000 nM. Still for that read-out and setting: in the case of `Cc1nc2cc(Nc3nc(NCCN)c(F)cc3C(N)=O)ccc2o1` it was 100 to 1000 nM. With `Cn1cc2ccc(Nc3nc(NCCN)c(F)cc3C(N)=O)cc2n1`, the IC50 was in the range of 100 to 1000 nM. On to `N#Cc1cccc(Nc2nc(NCCN)c(F)cc2C(N)=O)c1`, for which the IC50 lay within 100 to 1000 nM. Same read-out and setting: the result for `NC(=O)c1cc(F)c(NC2CCCC[C@@H]2N)nc1Nc1ccc2c(c1)CCC2` (stereo partly drawn) reads less than 10 nM; that for `NC(=O)c1cc(F)c(N[C@@H]2CCCC[C@@H]2N)nc1Nc1ccc(N2CCOCC2)nc1`, 10 to 50 nM. The same measure, in the same setting: in the case of `NC(=O)c1cc(F)c(N[C@@H]2CCCC[C@@H]2N)nc1Nc1ccc(NCCN2CCCC2)nc1` it was 10 to 50 nM; in that of `NC(=O)c1cc(F)c(N[C@@H]2CCCC[C@@H]2N)nc1Nc1ccc2cn(CCN3CCCC3)nc2c1`, less than 10 nM. Still for that read-out and setting: the result for `NC(=O)c1cc(F)c(N[C@@H]2CCCC[C@@H]2N)nc1Nc1ccc2cn(CCN3CCOCC3)nc2c1` reads less than 10 nM; that for `NC(=O)c1cc(F)c(N[C@@H]2CCCC[C@@H]2N)nc1Nc1ccc2cnn(CCN3CCCC3)c2c1`, less than 10 nM. For the compound `NC(=O)c1cc(F)c(N[C@@H]2CCCC[C@@H]2N)nc1Nc1ccc2cnn(CCN3CCOCC3)c2c1`, the IC50 is less than 10 nM. Same read-out and setting: the result for `NC(=O)c1cc(F)c(N[C@@H]2CCCC[C@@H]2N)nc1Nc1ccc2nn(CCN3CCOCC3)cc2c1` reads less than 10 nM. Same read-out and setting: in the case of `NC(=O)c1cc(F)c(N[C@@H]2CCCC[C@@H]2N)nc1Nc1ccnc(N2CCCCC2)c1` it was less than 10 nM. The same measure, in the same setting: the result for `NC(=O)c1cc(F)c(N[C@@H]2CCCC[C@@H]2N)nc1Nc1cncc(N)c1` reads less than 10 nM. `NC(=O)c1cc(F)c(N[C@@H]2CCCC[C@@H]2N)nc1Nc1cncc(NC=O)c1`: the IC50 was less than 10 nM. Same read-out and setting: in the case of `NC(=O)c1cc(F)c(N[C@@H]2CCCC[C@@H]2N)nc1Nc1cncc(NS(=O)(=O)c2ccccc2)c1` it was 100 to 1000 nM; in that of `NC(=O)c1cc(F)c(N[C@@H]2CCCC[C@@H]2N)nc1Nc1cnccc1-c1ccccc1`, 100 to 1000 nM; in that of `NC(=O)c1cc(F)c(N[C@@H]2CCNC2)nc1Nc1ccc2ncccc2c1`, 50 to 100 nM. As for `NC(=O)c1cc(F)c(N[C@H](C(N)=O)c2ccccc2)nc1Nc1ccc2ncsc2c1`, the IC50 lay in the range of 100 to 1000 nM. Still for that read-out and setting: the result for `NC(=O)c1cc(F)c(N[C@H]2CCNC2)nc1Nc1ccc2ncccc2c1` reads 100 to 1000 nM; that for `NCCNc1nc(Nc2cc(C(F)(F)F)cc(C(F)(F)F)c2)c(C(N)=O)cc1F`, 100 to 1000 nM. The same measure, in the same setting: in the case of `NCCNc1nc(Nc2ccc(Cl)c(Cl)c2)c(C(N)=O)cc1F` it was 100 to 1000 nM; in that of `NCCNc1nc(Nc2ccc(F)c(Cl)c2)c(C(N)=O)cc1F`, 100 to 1000 nM; in that of `NCCNc1nc(Nc2ccc3cn[nH]c3c2)c(C(N)=O)cc1F`, 50 to 100 nM. Still for that read-out and setting: the result for `NCCNc1nc(Nc2cccc(-c3ccccc3)c2)c(C(N)=O)cc1F` reads 50 to 100 nM.

As for `NCCNc1nc(Nc2cccc(C(=O)N3CCOCC3)c2)c(C(N)=O)cc1F`, the IC50 was in the range of 100 to 1000 nM.

Turning to `NCCNc1nc(Nc2cccc(C(F)(F)F)c2)c(C(N)=O)cc1F`, the concentration for half-maximal inhibition (IC50) was in the range of 100 to 1000 nM. Regarding `NCCNc1nc(Nc2cccc(C(N)=O)c2)c(C(N)=O)cc1F`, the IC50 was 50 to 100 nM.

On to `NCCNc1nc(Nc2cccc(CO)c2)c(C(N)=O)cc1F`, for which the half-maximal inhibitory concentration (IC50) fell in the range of 100 to 1000 nM. The same measure, in the same setting: the result for `NCCNc1nc(Nc2cccc3ccccc23)c(C(N)=O)cc1F` reads 50 to 100 nM; that for `NCCNc1nc(Nc2cccnc2)c(C(N)=O)cc1F`, 100 to 1000 nM. The same measure, in the same setting: in the case of `NC(=O)c1cc(F)c(N[C@@H]2CCCC[C@@H]2N)nc1Nc1ccc(OCCN2CCCC2)cc1` (relative stereo) it was 10 to 50 nM; in that of `NC(=O)c1cc(F)c(N[C@@H]2CCCC[C@@H]2N)nc1Nc1ccc2ccncc2c1` (relative stereo), less than 10 nM. As to `NC(=O)c1cc(F)c(N[C@@H]2CCCC[C@@H]2N)nc1Nc1ccc2nn(CC3CC3)cc2c1` (relative stereo), the IC50 fell in the range of 10 to 50 nM. Still for that read-out and setting: in the case of `NC(=O)c1cc(F)c(N[C@@H]2CCCC[C@@H]2N)nc1Nc1ccc2nn(Cc3ccccc3)cc2c1` (relative stereo) it was 10 to 50 nM; in that of `NC(=O)c1cc(F)c(N[C@@H]2CCCC[C@@H]2N)nc1Nc1ccc2nsnc2c1` (relative stereo), less than 10 nM. For `NC(=O)c1cc(F)c(N[C@@H]2CCCC[C@@H]2N)nc1Nc1cccc(-c2ccccc2)c1` (relative stereo), the IC50 is less than 10 nM. Take `NC(=O)c1cc(F)c(N[C@@H]2CCCC[C@@H]2N)nc1Nc1cccc(OCCN2CCCC2)c1` (relative stereo): the half-maximal inhibitory concentration (IC50) is less than 10 nM. Still for that read-out and setting: the result for `NC(=O)c1cc(F)c(N[C@@H]2CCCC[C@@H]2N)nc1Nc1cccc2cccnc12` (relative stereo) reads 10 to 50 nM; that for `NC(=O)c1cc(F)c(N[C@@H]2CCCC[C@@H]2N)nc1Nc1ccnc(C(=O)O)c1` (relative stereo), 50 to 100 nM. As to `NC(=O)c1cc(F)c(N[C@@H]2CCCC[C@@H]2N)nc1Nc1ccnc(N2CCCC2)c1` (relative stereo), the half-maximal inhibitory concentration (IC50) was in the range of 10 to 50 nM.

As for `NC(=O)c1cc(F)c(N[C@@H]2CCCC[C@@H]2N)nc1Nc1ccnc2c1ccn2CC(=O)O` (relative stereo), the IC50 was 10 to 50 nM. On the same count and under the same terms, the result for `NC(=O)c1cc(F)c(N[C@@H]2CCCC[C@@H]2N)nc1Nc1cnc2ccccn12` (relative stereo) reads 50 to 100 nM; that for `NC(=O)c1cc(F)c(N[C@@H]2CCCC[C@@H]2N)nc1Nc1cncc(NC(=O)c2ccccc2)c1` (relative stereo), less than 10 nM.

Staying with this test, now noted: read-out: IC50 of Syk-inhibitory activity, Test Example 1, tested form: HCl.
Take `COc1cc(Nc2nc(NC3CCC(N)CC3)c(F)cc2C(N)=O)cc(OC)c1` (stereo not drawn): the IC50 lay within 100 to 1000 nM. As for `COc1cc(Nc2nc(N[C@@H]3CCCC[C@H]3N)c(F)cc2C(N)=O)cc(OC)c1`, the concentration for half-maximal inhibition (IC50) was 50 to 100 nM.

The test is the same for the next values; noted with them: read-out: IC50 of Syk-inhibitory activity, Test Example 1, tested form: free.
Turning to `CC(C)C[C@@H](Nc1nc(Nc2ccc3ncccc3c2)c(C(N)=O)cc1F)c1cnn[nH]1`, the IC50 lay in the range of 100 to 1000 nM.

Still in this test, the particulars now being: read-out: IC50 of Syk-inhibitory activity, Test Example 1, tested form: hydrochloride.
Regarding `CCCCOc1cc(Nc2nc(N[C@@H]3CCCC[C@@H]3N)c(F)cc2C(N)=O)ccn1`, the IC50 was less than 10 nM.
